The target of this experiment is T1, human 5-HT6 receptor (Homo sapiens, UniProt P50406).
T1 construct: host or cells: CHO-K1 cells, stably transfected; membranes prepared in house
Briefly: Human 5-HT6 Receptor Binding Assay ([3H]LSD displacement, scintillation beads). As to the method: Human 5-HT6 Receptor Binding Assay
Membranes were prepared from CHO—K1 cells stably transfected with the human 5-HT6 receptor (Euroscreen; ES-316-C). The cells were grown in Gibco Advanced DMEM-F12 (Cat#12634010) containing 2% dialyzed FBS (Hyclone Cat#SH30079.03). The cells were harvested in phosphate buffered saline (PBS) containing 0.1 mM EDTA and pelleted by centrifugation (1000×g), the supernatant was discarded and the pellets were stored at −80° C. prior to membrane preparation. Membranes were prepared as previously described (J Bio Chem. 1992, 267 (14) 9844-51). […] The membranes were centrifuged at 40,000×g for 30 min at 4° C. and the pellets were resuspended in membrane buffer containing 250 mM sucrose, and protein concentration was determined using the Coomassie Plus kit (Pierce Biotechnology, Rockford, Ill.).
Membranes prepared from cells expressing recombinant human 5-HT6 receptor (h5-HT6) were resuspended in assay buffer containing 50 mM Tris HCl, (pH7.4), 4 mM CaCl2, 10 μg/mL saponin, and 0.1% (w/v) ascorbic acid. […] Plates were read using the Microbeta Trilux 1450 LSC and luminescence counter. Data were analyzed by nonlinear […] using the dose-response equation (variable slope) to calculate IC50 in XLfit4 (ID Business Solutions Inc.): y=(Bottom+((Top−Bottom)/(1+((IC50/x)^Hill slope)))) […]

Sequences of proteins named here, by UniProt entry; tags and fusion partners are left off.
UniProt P50406, whole entry: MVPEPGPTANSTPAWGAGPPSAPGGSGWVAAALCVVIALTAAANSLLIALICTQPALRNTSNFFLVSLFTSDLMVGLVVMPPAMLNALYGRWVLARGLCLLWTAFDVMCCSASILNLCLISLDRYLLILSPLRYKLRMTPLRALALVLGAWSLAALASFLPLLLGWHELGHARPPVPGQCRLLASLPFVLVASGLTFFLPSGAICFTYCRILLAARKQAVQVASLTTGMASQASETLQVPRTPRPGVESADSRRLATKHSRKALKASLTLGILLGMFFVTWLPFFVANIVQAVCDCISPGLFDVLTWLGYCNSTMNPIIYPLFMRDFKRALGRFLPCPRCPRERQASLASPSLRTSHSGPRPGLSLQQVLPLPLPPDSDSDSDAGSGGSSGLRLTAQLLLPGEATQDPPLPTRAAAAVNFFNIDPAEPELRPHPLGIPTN

Where two headings read alike, the source gives them in different places. A value given as a limit tells only on which side of the number the result lay.

Regarding `O=S(=O)(c1cccc(F)c1)c1ccc2c3c(oc2c1)C1(CCCOC1)NCC3` (centres unmarked) [Example 22, 7-[(3-Fluorophenyl)sulfonyl]-3,4,5′,6′-tetrahydro-2H,4′H-spiro[1-benzofuro[2,3-c]pyridine-1,3′-pyran]], for the setting “membranes of CHO-K1 cells with recombinant human 5-HT6, 4 nM [3H]LSD, Table 1, class symbols, read-out: h5-HT6 (Ki)”, the Ki (usually a measure of affinity in units of concentration, obtained from inhibition or displacement) is less than 500 nM. Under “h5-HT6 (Ki, nM)”, `CC1(C(F)F)NCCc2c1oc1cc(S(=O)(=O)c3cccc(F)c3)ccc21` (centres unmarked) [Example 508] yielded an inhibition constant (Ki) of less than 500 nM.

The record behind these values is US8765779B2, “Tricyclic derivatives and their pharmaceutical use and compositions” (Cephalon, Inc., priority 2009, dated 2014).
